Only a part is listed here, and it is no random draw. Activity calls are given as the source filed them.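 How the source made its calls: active means inhibition over about 50% at 20 µM in the single-dose screen (limit read from the data); inactive means the rest.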

The chains behind the UniProt entries cited, without tags or fusion partners.
UniProt Q01196, whole entry, looked up: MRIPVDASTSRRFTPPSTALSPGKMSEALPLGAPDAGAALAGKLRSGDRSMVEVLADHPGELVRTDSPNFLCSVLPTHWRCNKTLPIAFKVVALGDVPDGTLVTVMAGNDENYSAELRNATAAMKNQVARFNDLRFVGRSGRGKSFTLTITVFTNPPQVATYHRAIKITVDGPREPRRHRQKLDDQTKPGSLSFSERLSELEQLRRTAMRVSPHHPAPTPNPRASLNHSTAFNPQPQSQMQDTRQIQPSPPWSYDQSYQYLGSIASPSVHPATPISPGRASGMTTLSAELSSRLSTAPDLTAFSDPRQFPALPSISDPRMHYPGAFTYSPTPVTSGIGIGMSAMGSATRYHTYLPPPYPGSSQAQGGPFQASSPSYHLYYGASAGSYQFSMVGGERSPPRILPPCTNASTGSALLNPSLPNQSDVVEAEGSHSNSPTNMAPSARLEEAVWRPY
UniProt Q13951, whole entry, looked up: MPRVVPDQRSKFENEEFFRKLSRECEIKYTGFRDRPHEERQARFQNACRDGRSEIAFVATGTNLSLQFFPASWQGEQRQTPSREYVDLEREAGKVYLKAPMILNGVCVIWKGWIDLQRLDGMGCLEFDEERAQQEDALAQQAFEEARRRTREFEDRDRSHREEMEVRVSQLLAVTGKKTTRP

This assay deals with Runt-related transcription factor 1 (Homo sapiens) + Core-binding factor subunit beta (Homo sapiens) (UniProt Q01196+Q13951). Briefly: inhibitors of RUNX1 Runt–CBFb binding, primary screen, biochemical, FRET, Cerulean-Runt, Venus-CBFb, uHTS (AID 1496).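 Further: 0% = DMSO wells and 100% = excess unlabeled CBFb competitor control.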 As to conditions: Cerulean-Runt/Venus-CBFb FRET ratio 530/480, 1 h; at 20 µM; hits give high values. The gist of the method: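 Assay system: Cerulean-Runt domain fusion protein, energy donor; Signal: fluorescence energy transfer, 422 nm excitation, 530/480 nm emission; Timing: 1 h compound exposure, room temperature; Control set: unlabeled CBFb; Medium: Tris buffer pH 7.5 with salts and BSA; Compound: single test concentration of 20 µM, 1% DMSO final; Probe or stimulus: Venus-CBFb 100 nM.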
One may read the inhibition as the change of the read-out against control, counted positive when it falls. For the compound `N/C(=N\O)c1c(N)no[n+]1[O-]`, the inhibition is inactive: -1.2%. The figure for `O=C(OC1CN2CCC1CC2)C1c2ccccc2C=Cc2ccccc21` (centres undefined) is inactive: -3.1%; for `COc1ccc(C(=O)NCC2(N3CCOCC3)CCCCC2)cc1OC` it is inactive: -0.1%; for `c1ccc(CN2CCC(Nc3ccccc3)CC2)cc1` it is inactive: -0.1%. In the case of `N#Cc1ccc(C(=O)NCC2(N3CCCCC3)CCCCC2)cc1`, the inhibition was inactive: -1.3%.

For the compound `CCN1CCC(Nc2cccc(F)c2)CC1`, the inhibition was inactive: -1.8%. The figure for `CN(C)c1ccc(C(=O)NCC2(N3CCCCC3)CCCCC2)cc1` is inactive: 1.4%; for `Fc1ccccc1NC1CCN(Cc2ccccc2)CC1` it is inactive: -1.3%; for `CCC(CO)(C(=O)OC1CN2CCC1CC2)c1ccccc1` (centres undefined) it is inactive: -0.8%. For `COc1cc(OC)cc(C(=O)NCC2(N3CCOCC3)CCCCC2)c1` the value was inactive: -2.1%; for `CCCOc1ccc(C)cc1CN(CCCl)CCCl`, inactive: 1.7%. For `CCOc1ncccc1C(=O)NCC1(N2CCOCC2)CCCCC1`, the inhibition was inactive: 0.4%. The figure for `CC(C)(C)OC(=O)N1CCC(Nc2ccccc2)CC1` is inactive: -2.4%; for `O=C(NCC1(N2CCOCC2)CCCCC1)c1cc2ccccc2o1` it is inactive: -0.6%. The figure for `CCOC(=O)N1CCC(Nc2ccc(OC)cc2)CC1` is inactive: 0.9%. For `O=C(OC1CN2CCC1CC2)C1c2ccccc2Oc2ccccc21` (centres undefined) the value was inactive: -1.1%; for `N#CC1(Nc2ccccc2)CCN(Cc2ccccc2)CC1`, inactive: -1.7%. Consider `COc1ccc(C(=O)NCC2(N3CCCCC3)CCCCC2)c(OC)c1OC`, for which the inhibition is inactive: 1.9%. As to `Cc1ccc(OCC(C)C)c(CN(CCCl)CCCl)c1`, the inhibition is inactive: 0.7%. For `CCOc1ccc(C)cc1CN(CCCl)CCCl` the value was inactive: 1.4%; for `COc1ccc(NC2CCN(CCc3ccccc3)CC2)c(OC)c1`, inactive: 17.2%. For `COc1ccc(NC2CCN(C(=O)OC(C)(C)C)CC2)cc1` the value was inactive: 11%. Regarding `CN1CCN(CCOC(=O)C(O)(c2ccccc2)c2ccccc2)CC1`, the inhibition is inactive: -2.3%. With `O=C(NCC1(N2CCOCC2)CCCCC1)c1cc(=O)[nH]c2ccccc12`, the inhibition was inactive: 1.7%. The figure for `O=C(NCC1(N2CCCCC2)CCCCC1)c1cccc([N+](=O)[O-])c1` is inactive: -0.5%; for `N#CC1(Nc2ccccc2)CCN(CCc2ccccc2)CC1` it is inactive: -0.4%; for `CN(C)c1cccc(C(=O)NCC2(N3CCCCC3)CCCCC2)c1` it is inactive: -0.7%. For `COc1ccc(CN(CCCl)CCCl)cc1Cl`, the inhibition is inactive: -1.8%. The figure for `CC(C)c1ccc(NC2CCN(C(=O)OC(C)(C)C)CC2)cc1` is inactive: 3.3%.
